For this assay, the target named is T1, mRARβ (Mus musculus, UniProt P22605).
T1 construct: made in house; host or cells: Spodoptera frugiperda insect cells, baculovirus (whole cell extract)
Nature of the assay: Drug competition with (3H)retinoic acid binding, mRARβ. The conditions noted are these: read-out: percent reduction of binding of the (3H)retinoic acid, mRARβ.

The chains behind the UniProt entries cited, without tags or fusion partners. Residues count along the entry.
UniProt P22605, 1-448 isoform P22605-3: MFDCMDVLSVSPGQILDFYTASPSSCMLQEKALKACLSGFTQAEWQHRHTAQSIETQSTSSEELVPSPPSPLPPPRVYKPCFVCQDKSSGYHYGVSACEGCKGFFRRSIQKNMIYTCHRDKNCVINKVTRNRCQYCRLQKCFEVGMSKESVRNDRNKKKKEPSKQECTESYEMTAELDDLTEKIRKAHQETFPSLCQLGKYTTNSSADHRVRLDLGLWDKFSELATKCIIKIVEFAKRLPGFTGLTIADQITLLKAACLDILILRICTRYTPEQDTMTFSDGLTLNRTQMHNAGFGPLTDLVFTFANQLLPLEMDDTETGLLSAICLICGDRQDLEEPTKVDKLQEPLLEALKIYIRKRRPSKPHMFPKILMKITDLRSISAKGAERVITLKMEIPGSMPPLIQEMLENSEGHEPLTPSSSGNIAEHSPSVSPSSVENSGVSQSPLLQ

On to `CC1=C(/C=C/C(C)=C/C=C/C(C)=C\C(=O)O)C(C)(C)CCC1` [13-cis-retinoic acid, reference compound], for which the inhibition at 1 µM was found to be 13%.

As to `CC1=C(/C=C/C(C)=C/C=C/C(C)=C/C(=O)O)C(C)(C)CCC1` [retinoic acid, reference compound], the inhibition at 1 µM is 100%.

Values taken from patent publication US5599953A, “C-glycoside analogues of N-(4-hydroxyphenyl)retinamide-O-glucuronide” (The Ohio State Research Foundation, priority 1995, dated 1997).
